Source: article PMC7680422 (European journal of medicinal chemistry, 2020)

Assay: Phase I metabolic stability in rat liver microsomes
Format: in vitro ADME

O=C(c1ccc(F)cc1F)N1CCC(NCCSC(c2ccc(F)cc2)c2ccc(F)cc2)CC1 [Compound 33, (4-((2-((Bis(4-fluorophenyl)methyl)thio)ethyl)amino)piperidin-1-yl)(2,4-difluorophenyl)methanone]
metabolic stability / susceptibility to phase I metabolism (in words): relatively metabolically stable
